Measured values reported in patent publication US6750247B2, “Sponge-derived terpenoids and methods of use” (Galileo Laboratories, Inc., priority 2001, dated 2004).

Molecular target: T1, 15-HLO (Homo sapiens, UniProt P16050)
T1 sequence (P16050 1-662): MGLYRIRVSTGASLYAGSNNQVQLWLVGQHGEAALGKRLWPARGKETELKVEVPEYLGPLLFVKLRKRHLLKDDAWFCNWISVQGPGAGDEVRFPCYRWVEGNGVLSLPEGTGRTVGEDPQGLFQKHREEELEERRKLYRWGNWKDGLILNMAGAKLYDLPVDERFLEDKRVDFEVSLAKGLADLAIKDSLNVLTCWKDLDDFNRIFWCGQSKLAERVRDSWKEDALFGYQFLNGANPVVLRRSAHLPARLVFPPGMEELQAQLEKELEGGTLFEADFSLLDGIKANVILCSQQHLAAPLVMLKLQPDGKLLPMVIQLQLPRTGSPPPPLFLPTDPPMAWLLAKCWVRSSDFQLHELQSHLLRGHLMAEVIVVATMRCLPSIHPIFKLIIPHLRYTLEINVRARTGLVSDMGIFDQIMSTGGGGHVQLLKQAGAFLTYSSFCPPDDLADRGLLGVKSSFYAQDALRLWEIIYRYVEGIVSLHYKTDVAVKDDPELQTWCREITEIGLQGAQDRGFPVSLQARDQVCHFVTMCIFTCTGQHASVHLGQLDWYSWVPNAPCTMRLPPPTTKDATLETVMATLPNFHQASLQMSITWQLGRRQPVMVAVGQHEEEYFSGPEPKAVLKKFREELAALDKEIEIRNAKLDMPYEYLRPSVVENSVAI

## CC1=C(CC/C(C)=C/Cc2cc(C(=O)O)ccc2O)[C@]2(C)CCCC(C)(C)[C@H]2CC1 [(−)-subersic acid (1), 4-hydroxy-3-[3-methyl-5-(2,5,5,8a-tetramethyl-3,4,4a,5,6,7,8,8a-octahydro-naphthalen-1-yl)-pent-2-enyl]-benzoic acid]
  reduction of active site Fe(III) of 15-HLO seen by fluorescence spectroscopy: do not cause a change in the fluorescence spectroscopy of 15-HLO
